# AlphaSeq binding of Ab-14 light chain variants to a spike HR2 peptide

Target: peptide PDVDLGDISGINAS, taken from heptad repeat 2 (HR2) of SARS-CoV-2 spike.

Parent scFv Ab-14: VH joined to VL by a (GGGGS)3 linker. Changes lie in the light chain CDRs alone.
VH: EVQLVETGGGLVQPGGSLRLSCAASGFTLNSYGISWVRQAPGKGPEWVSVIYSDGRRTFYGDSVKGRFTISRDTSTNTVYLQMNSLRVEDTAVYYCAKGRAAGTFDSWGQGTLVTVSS
VL: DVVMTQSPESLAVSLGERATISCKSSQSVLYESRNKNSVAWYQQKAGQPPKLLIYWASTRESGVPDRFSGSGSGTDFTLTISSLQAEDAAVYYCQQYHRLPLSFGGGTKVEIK

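The starting antibody came from a phage panning campaign against this peptide. Designed CDR sequences, proposed from the first random library and measured here. Their group label is 14L_En_Gibbs (En: ensemble of fine-tuned language models; Gibbs: Gibbs sampling). In AlphaSeq, yeast of one mating type display the scFv and yeast of the other type display the target. After mating in shaken culture at 30 °C for 16 h, diploids were selected and their barcode pairs sequenced. A regression on co-assayed BCL2-family reference pairs converts the normalised counts of each replicate to an apparent Kd. Each pool was mated in six replicate cultures.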

Each variant is given by its three light chain CDRs, as the data file delimits them; those of the parent are KSSQSVLYESRNKNSVA, WASTRES, QQYHRLPLS. Values are log10 of the apparent Kd in nM; lower means stronger binding. A pair that was not seen in that replicate is written "nd"; this usually means weak binding, but a binder can also be missed. Nonspecific signal, from three strains lacking the peptide, appeared in 4% of pairings of all light chain designs, centred on 2.64 (5% of these signals below 1.59); values are not corrected for it. The control count says in how many pairings with the empty strains this scFv gave a signal, with their mean in brackets. Values of this round are not directly comparable with the first-round values of the same sequences. The parent sequence was in this pool as ten entries: three were never detected, three once, and four in most replicates, with averages from 0.34 to 2.37. In the paper, a design with two or fewer of six values counts as a poor binder.

CDR-L1 | CDR-L2 | CDR-L3 | replicates, log10 nM | signal with controls
NMNVGLNFGGIQHQAIA | EVEKRES | QQYARLPLT | 0.87 / 0.78 / 0.74 / 0.77 / 0.63 / 0.81 | 1/18 (4.72)
KISMEPLVEENHAQAIA | DAHASYI | QQYFHLPLY | 1.02 / 1.31 / 1.04 / 1.17 / 1.07 / 1.41 | 0/18
KVDISPHKQGMHKHGVA | DHDMRVS | QQYDRLPLA | 1.80 / 1.38 / 1.57 / 1.04 / 1.74 / 1.79 | 1/18 (2.66)
KLQQESDNMNDMQNSVA | EESMVQY | QHYWRLPLT | nd / nd / nd / nd / nd / nd | 0/18
NLMYLEENSLIGASAIA | DVSIAVM | QQYHRLPLA | 1.19 / 1.49 / 1.67 / 2.17 / 1.72 / 1.77 | 2/18 (2.72)
RVQLNSGHIDMHWYNIA | SASIRAD | QQYFRLPIF | 0.85 / 1.36 / 0.64 / 0.96 / 0.95 / 0.98 | 1/18 (1.91)
KIQPQLQQSFASKNNVA | DRQLSAE | QQYNRLPLV | 0.36 / 0.06 / -0.13 / -0.36 / 0.05 / 0.12 | 0/18
AIDSHGLGTQEYYDSIA | EEHVKVR | QQYDRLPLS | nd / nd / nd / nd / nd / 2.38 | 0/18
KFSSAWSGEENNNNNIA | SADTLNH | QQYWTLPLS | nd / 2.33 / nd / nd / nd / nd | 0/18
KLWGSLLAGQSELQSVA | AAEVLRQ | QQYNMLPLS | 1.49 / 1.22 / 1.57 / 1.02 / 0.77 / 1.95 | 1/18 (2.33)
RLLDQADGWTRNERNIA | DADHRGA | QQYSHLPLC | -0.23 / -0.35 / -0.48 / -0.60 / -0.21 / -0.38 | 1/18 (2.31)
NVDISQNVNYNHKAAVA | GHDERVG | QQYSRLPLS | 0.96 / 0.64 / 1.22 / 0.32 / 0.83 / 0.86 | 0/18
KIQWYPLENRGTIQAVA | EASTAYN | QQYMHLPLS | 0.80 / 1.36 / 1.78 / 3.21 / 1.69 / nd | 0/18
MLALPQKELGYAKDAIA | DGSIRLG | QQYHRLPLT | 0.31 / 0.10 / -0.07 / 0.43 / -0.10 / -0.02 | 3/18 (2.20)
NLNVSEDQMPSSKNAIA | QTTCRNL | QQYVKLPLS | 0.64 / 0.44 / 0.04 / 0.11 / 0.12 / 0.28 | 0/18
QIFFNDFQYRIESQNIA | QGSMREV | QQYARLPLV | 0.98 / 0.87 / 0.93 / 0.66 / 0.86 / 1.02 | 0/18
MITYAETQLQRIDSNVA | AGSARCR | QQYYRLPLA | 1.05 / 0.35 / 0.81 / 0.55 / 0.70 / 0.79 | 2/18 (1.95)
QLEWYNSTATAAKNSVA | GVAHRMN | QQYMRLPLM | 0.30 / 0.36 / 0.43 / 0.19 / -0.11 / 0.54 | 0/18
MIEIIQDGYMEMRSNVA | DTSLVRM | QQYARLPLM | 1.67 / 1.34 / nd / 1.92 / 0.80 / 1.76 | 0/18
SLSESEREELSVEQNIA | DGTEHMR | QQYFQLPLL | 1.40 / 1.19 / 1.59 / 0.90 / 1.33 / 1.55 | 0/18
NFEMFDGMLNMYASSIA | NAHCLVQ | QQYGRLPIS | 2.26 / 1.79 / 1.96 / 1.83 / 2.25 / 2.05 | 2/18 (3.40)
RVQLNSGHIDMHWYNIA | SASIRAD | QQYFRLPLF | 0.91 / 1.41 / 0.38 / 1.13 / 0.95 / 1.11 | 0/18
HVELGVGGVQAYGDSVA | HASQRQA | QQYYQLPLT | 0.30 / 0.12 / -0.04 / -0.03 / 0.02 / 0.19 | 1/18 (3.94)
QIARAMYHGLNDNQNIA | DAMTYIK | QQYSRLPLF | nd / nd / nd / nd / nd / nd | 0/18
KLDQKNRVNGMACYNVA | DSNHRLD | QQYHRLPLI | 2.34 / 1.27 / 2.43 / 1.15 / 1.20 / 1.44 | 2/18 (1.87)
KINGVLINNGIDMNAIA | QENISNL | QQYFHLPLS | 2.68 / 2.08 / 1.53 / 1.84 / 1.54 / 2.29 | 1/18 (2.74)
ALTNEPESVDHHLNNVA | STSKRCM | QQYARLPLS | 0.27 / -0.04 / 0.21 / -0.01 / 0.17 / 0.32 | 1/18 (3.72)
KLQWYNTEASYSAFNIA | DGAQRLN | QQYMRLPLM | 0.58 / 0.30 / 0.99 / 0.39 / 0.36 / 0.48 | 0/18
NMQMQDDLMLNAKQNVA | GVDMREE | QQYFRLPFL | 0.31 / 0.09 / 0.12 / -0.06 / 0.26 / 0.28 | 4/18 (2.80)
AVSIQHMENTAIWNAIA | DTSLRAH | QQYYHLPLC | 1.06 / 1.28 / 1.18 / 1.15 / 1.25 / 2.08 | 0/18
KIQDFLGTLMEQINSIA | NSEEIVQ | QSYFRLPLS | 1.67 / 1.13 / 1.29 / 1.47 / 0.52 / 1.27 | 1/18 (1.95)
RITILSDYYMENRSAIA | ETSLKAH | QQYFMLPLT | nd / nd / nd / nd / nd / 0.76 | 0/18
GIDPYEAMAGKNKESIA | EAAVTLT | QQYARLPLS | nd / 1.40 / nd / nd / nd / nd | 0/18
KLLGQNLQNMDKLNSIA | DQSVHYQ | QQYGRLPFT | 0.66 / 0.77 / 0.81 / 0.63 / 0.65 / 0.96 | 1/18 (1.94)
HIDQVKYEQKTAENNIA | SGAERVW | QQYSRLPFS | 0.25 / 0.08 / 0.02 / 0.07 / 0.36 / 0.31 | 0/18
KLMNSLDAFHSWEDNIA | NTEIKVA | QQYYHLPLT | 1.17 / 1.48 / 1.17 / 1.98 / 1.88 / 1.87 | 1/18 (2.55)
LMNERMMMGENQQHNIA | NAATLVK | QQYHNLPLG | 1.06 / 0.67 / 0.95 / 1.09 / 1.09 / 1.11 | 0/18
QLEFERGDEWKQGAAIA | GNTESLH | QQYAMLPLS | 0.78 / 0.74 / 0.94 / 0.68 / 0.81 / 0.93 | 0/18
ALELFEYQIMKDLNSIA | NTNTKVN | QQYMRLPFA | 0.65 / 0.98 / 0.95 / 0.15 / 0.43 / 0.61 | 0/18
NLVEMEGTNQTKMGNIA | SVDQRMS | QQYQRLPLI | 0.76 / 1.23 / 0.88 / 1.11 / 0.80 / 1.03 | 0/18
NMQMQDDLMLNAKQNVA | GVDMREE | QQYFRLPLL | 0.69 / 0.29 / 0.08 / 0.69 / 0.60 / 0.71 | 1/18 (1.94)
QLGRNQVGETLMQDAIA | HDALRAD | QQYFRLPLL | 1.88 / 1.13 / 0.66 / 0.41 / 0.45 / 0.60 | 0/18
KFMMSGEYQMHEQNNIA | QGEIKFK | QQYFRLPIT | 3.00 / 1.26 / 1.03 / 1.12 / 1.20 / 1.24 | 0/18

Repeated from above, the 4 best binders with a signal in all replicates:

CDR-L1 | CDR-L2 | CDR-L3 | replicates, log10 nM | signal with controls
RLLDQADGWTRNERNIA | DADHRGA | QQYSHLPLC | -0.23 / -0.35 / -0.48 / -0.60 / -0.21 / -0.38 | 1/18 (2.31)
KIQPQLQQSFASKNNVA | DRQLSAE | QQYNRLPLV | 0.36 / 0.06 / -0.13 / -0.36 / 0.05 / 0.12 | 0/18
HVELGVGGVQAYGDSVA | HASQRQA | QQYYQLPLT | 0.30 / 0.12 / -0.04 / -0.03 / 0.02 / 0.19 | 1/18 (3.94)
MLALPQKELGYAKDAIA | DGSIRLG | QQYHRLPLT | 0.31 / 0.10 / -0.07 / 0.43 / -0.10 / -0.02 | 3/18 (2.20)

Source: Li et al. 2023 (doi:10.1038/s41467-023-39022-2), MIT Lincoln Laboratory and A-Alpha Bio; data file from the FLAb repository.